The data set is described as follows: Solubility experiments in acetonitrile/water with and without excess maleic acid. Format: physicochemical. As to the method:
Attempts were made to study the solubility of S-[2-[(1-Iminoethyl)amino]ethyl]-2-methyl-L-cysteine maleate Form II crystalline salt at 5° C. in 70/30 v/v acetonitrile/water with and without excess (1 molar equivalent) maleic acid and in 90/10 v/v acetonitrile/water with one molar equivalent excess maleic acid All three experimental vials were prepared by adding approximately 90 mg of S-[2-[(1-Iminoethyl)amino]ethyl]-2-methyl-L-cysteine maleate crystalline salt and 30 mg of maleic acid to approximately 300 mg of binary solvent. These vials were then placed in a shaker bath at 5° C. After four days of equilibration when the vials were observed, it was discovered that the system had turned from a suspension of solids in a single liquid phase to a biphasic liquid with no suspended solids. Both layers from each of the three vials were analyzed for water content (through Karl-Fischer analysis) and concentration of the compound. […] It is worth pointing out though that the exact conditions leading to measured concentrations in the top layer could only be truly established when the partitioning of excess maleic acid is established between the two layers. The bottom layer (rich in water) would most likely be under-saturated since no excess solids remained. This possibility is substantiated by the solubility data on the bottom layer, where the concentrations are found to be very similar across all the experiments. While the vial at 70/30 acetonitrile/water with excess maleic acid remained biphasic even after nineteen days, the 70/30 acetonitrile/water vial without any excess maleic acid after five days had some very large crystals floating in a solution that still seemed biphasic. […] These crystals were used to obtain crystallography data. After nineteen days of equilibration at 5° C., the 90/10 acetonitrile/water vial with excess maleic acid had turned back into a slurry of solids in a single liquid phase. […] The fact that 70/30 vial with excess maleic acid remained biphasic and more importantly without any re-crystallized solids could be because of the higher solubility resulting from excess maleic acid (compared to 70/30 vial without excess malice acid) and higher water content (compared to the 90/10 vial with excess maleic acid). Equally interesting to note is that the two vials where crystallization did occur from biphasic solvent systems had form II crystals in them at the time of isolation.

Where two headings read alike, the source gives them in different places.

The substance “S-[2-[(1-Iminoethyl)amino]ethyl]-2-methyl-L-cysteine maleate crystalline salt Form II” showed a Concentration of 1.02 Wt %. For the setting “70/30 ACN/Water (1x excess maleic acid), Bottom Layer (rich in water, most likely under-saturated), 5° C., four days”, this substance came in with a Concentration of 5.40 Wt %. Where the note is “70/30 ACN/Water (1x excess maleic acid), Top Layer (acetonitrile rich) of biphasic liquid, 5° C., four days”, this substance gave a Concentration of 2.71 Wt %. The Concentration (70/30 ACN/Water (no excess maleic acid), Bottom Layer (rich in water, most likely under-saturated), 5° C., four days) is recorded as 6.68 Wt %. For the setting “90/10 ACN/Water (1x excess maleic acid), Bottom Layer (rich in water, most likely under-saturated), 5° C., four days”, this substance had a Concentration of 5.28 Wt %. For the setting “90/10 ACN/Water (1x excess maleic acid), Top Layer (acetonitrile rich) of biphasic liquid, 5° C., four days”, this substance gave a Concentration of 2.67 Wt %.

The record behind these values is patent publication US20040209956A1, “S-[2-[(1-Iminoethyl)amino]ethyl]-2-methyl-L-cysteine maleate form II crystalline salt” (priority 2003, published 2004).
